This is an account of results in patent US9205050B2, “Antibiotic formulations, unit doses, kits and methods” (Bayer Intellectual Property GmbH, priority 2005, dated 2015).

The series in a line: particle size distribution of nebulized aerosol, laser diffraction. The series is classed as physicochemical. Particulars: solutions in WFI 40 to 120 mg/ml, fill 2 to 4 ml.

For the substance gentamicin sulfate, the “median particle size (volume median diameter)” value was in the range of 2 to 3 µM.
